# Measured values: US20070207946A1, “Dipeptidyl peptidase IV inhibitors and their uses for lowering blood pressure levels” (priority 2001, published 2007)
# Protein sequences, listed by entry. Tags and fused reporters are not part of them. Residues count along the entry.
# UniProt P14740, 38-767 limits assumed: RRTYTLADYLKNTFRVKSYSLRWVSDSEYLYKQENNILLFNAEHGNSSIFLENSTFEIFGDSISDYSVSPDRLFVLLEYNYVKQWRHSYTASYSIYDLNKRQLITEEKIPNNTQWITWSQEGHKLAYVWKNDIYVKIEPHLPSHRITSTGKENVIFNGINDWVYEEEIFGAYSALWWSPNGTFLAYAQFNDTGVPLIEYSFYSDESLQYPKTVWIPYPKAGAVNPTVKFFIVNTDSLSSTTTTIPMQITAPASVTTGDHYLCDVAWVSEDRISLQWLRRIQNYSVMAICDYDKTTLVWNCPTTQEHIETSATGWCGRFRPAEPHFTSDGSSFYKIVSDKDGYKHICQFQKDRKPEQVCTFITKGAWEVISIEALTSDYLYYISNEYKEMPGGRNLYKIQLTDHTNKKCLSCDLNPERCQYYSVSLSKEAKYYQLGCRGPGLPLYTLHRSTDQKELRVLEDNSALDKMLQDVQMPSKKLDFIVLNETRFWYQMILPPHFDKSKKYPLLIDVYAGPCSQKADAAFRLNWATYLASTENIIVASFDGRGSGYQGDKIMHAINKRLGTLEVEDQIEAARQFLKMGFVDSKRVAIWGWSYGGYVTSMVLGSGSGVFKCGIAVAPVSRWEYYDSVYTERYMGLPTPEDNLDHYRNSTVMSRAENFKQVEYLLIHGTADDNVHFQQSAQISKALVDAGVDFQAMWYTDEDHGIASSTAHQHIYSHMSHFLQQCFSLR
# Biological target: T1, plasma DPIV activity (Rattus norvegicus, UniProt P14740)
# T1 construct: from tissue; host or cells: plasma of Wistar rats
# Experiment: DPIV inhibiting activity after intravasal and oral administration to Wistar rats
# Assay type: in vivo
# Settings: dose 100 mg/kg, oral
row,"in vivo DPIV-inhibition at tmax, p.o.",SMILES
1,no inhibition,"CC(C)C[C@H](NC(=O)[C@@H]1CCCN1C(=O)[C@@H](N)C(C)C)C(=O)O [Diprotin B, Val-Pro-Leu, reference compound]"
2,no inhibition,"CC[C@H](C)[C@H](N)C(=O)N1CCC[C@H]1C(=O)N[C@H](C(=O)O)[C@@H](C)CC [Diprotin A, Ile-Pro-Ile, reference compound]"
